Source: ChEMBL document CHEMBL1201862, “PubChem BioAssay data set” (2004)

The chains behind the UniProt entries cited, without tags or fusion partners.
UniProt P08684, whole entry: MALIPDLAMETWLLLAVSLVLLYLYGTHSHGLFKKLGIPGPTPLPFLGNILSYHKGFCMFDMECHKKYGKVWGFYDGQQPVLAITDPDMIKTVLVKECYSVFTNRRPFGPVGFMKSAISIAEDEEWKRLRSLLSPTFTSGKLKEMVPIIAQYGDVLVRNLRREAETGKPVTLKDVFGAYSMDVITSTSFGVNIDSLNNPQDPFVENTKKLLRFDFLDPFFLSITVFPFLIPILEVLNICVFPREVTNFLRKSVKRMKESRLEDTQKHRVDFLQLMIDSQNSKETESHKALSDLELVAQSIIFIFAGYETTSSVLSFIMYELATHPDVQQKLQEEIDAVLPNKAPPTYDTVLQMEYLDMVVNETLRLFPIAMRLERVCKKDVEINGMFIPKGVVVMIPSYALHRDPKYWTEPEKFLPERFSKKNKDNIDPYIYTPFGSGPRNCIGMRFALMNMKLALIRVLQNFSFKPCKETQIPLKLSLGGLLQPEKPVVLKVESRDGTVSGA
UniProt P10635, whole entry: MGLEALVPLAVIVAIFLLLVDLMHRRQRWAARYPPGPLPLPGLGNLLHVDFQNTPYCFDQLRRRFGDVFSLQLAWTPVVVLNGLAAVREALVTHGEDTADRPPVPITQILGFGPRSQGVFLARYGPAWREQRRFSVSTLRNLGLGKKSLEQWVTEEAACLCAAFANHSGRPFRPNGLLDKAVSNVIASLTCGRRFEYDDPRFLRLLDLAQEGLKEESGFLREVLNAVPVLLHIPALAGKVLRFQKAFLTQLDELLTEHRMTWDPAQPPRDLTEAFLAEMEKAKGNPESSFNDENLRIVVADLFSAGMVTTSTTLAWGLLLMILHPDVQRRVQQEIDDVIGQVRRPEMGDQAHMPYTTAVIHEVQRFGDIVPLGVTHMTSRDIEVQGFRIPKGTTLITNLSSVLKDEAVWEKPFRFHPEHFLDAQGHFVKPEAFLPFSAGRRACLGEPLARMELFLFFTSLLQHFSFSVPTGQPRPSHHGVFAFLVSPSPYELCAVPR

Assays:
Cytochrome P450 3A4 = Cytochrome P450 3A4 (Homo sapiens, UniProt P08684);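 note: CYP3A4 tested as one member of a cytochrome P450 panel screen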
Cytochrome P450 2D6 = Cytochrome P450 2D6 (Homo sapiens, UniProt P10635);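 note: CYP2D6 member of a cytochrome P450 panel assay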

For `C#CCOC(=O)C1=CCCN(C)C1` [ARECAIDINE PROPARGYL ESTER], the AC50 (Cytochrome P450 3A4) was “inactive” and the AC50 (Cytochrome P450 2D6) was inconclusive: 31.6 µM.
